# Target: Netrin-1ΔC (Netrin-1 from Gallus gallus lacking the C-terminal domain) (Gallus gallus) (UniProt Q90922)
# Assay: SEC-MALS; 5 mg/mL Netrin-1 in 50 mM Tris pH 7.5, 200 mM NaCl; 300 uL on Superose 6 Increase 10/300 at 0.3 mL/min; Wyatt Dawn Heleos II; monomer-dimer equilibrium
substance,measurement,value
Netrin-1ΔC (Netrin-1 from Gallus gallus lacking the C-terminal domain) (from UniProt Q90922 26-458) (domain or fragment),stoichiometry N,2

# Source: article PMC8390410
